Target: (IgG1)6:(sEGFR)12, pre-formed complex of IgG1-RGY hexamer with soluble EGFR (UniProt P00533)
Test: native charge detection MS

By UniProt entry, the sequences of proteins in these tests, tags left out. Residues count along the entry.
UniProt P02745, 23-245: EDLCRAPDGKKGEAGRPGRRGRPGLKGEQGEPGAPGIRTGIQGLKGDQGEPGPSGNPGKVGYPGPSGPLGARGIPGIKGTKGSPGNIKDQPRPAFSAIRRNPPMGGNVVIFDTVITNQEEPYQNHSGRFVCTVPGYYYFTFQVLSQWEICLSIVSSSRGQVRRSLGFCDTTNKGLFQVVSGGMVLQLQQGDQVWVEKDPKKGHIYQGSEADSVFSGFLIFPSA
Human complement component C1q, UniProt P02746, 28-253: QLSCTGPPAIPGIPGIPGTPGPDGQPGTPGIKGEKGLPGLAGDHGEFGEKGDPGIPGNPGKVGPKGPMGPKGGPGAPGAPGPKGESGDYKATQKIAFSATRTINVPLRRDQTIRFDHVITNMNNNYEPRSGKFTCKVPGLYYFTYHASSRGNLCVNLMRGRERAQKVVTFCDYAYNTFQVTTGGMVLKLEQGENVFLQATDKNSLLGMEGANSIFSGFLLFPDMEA
Human complement component C1q, UniProt P02747, 29-245: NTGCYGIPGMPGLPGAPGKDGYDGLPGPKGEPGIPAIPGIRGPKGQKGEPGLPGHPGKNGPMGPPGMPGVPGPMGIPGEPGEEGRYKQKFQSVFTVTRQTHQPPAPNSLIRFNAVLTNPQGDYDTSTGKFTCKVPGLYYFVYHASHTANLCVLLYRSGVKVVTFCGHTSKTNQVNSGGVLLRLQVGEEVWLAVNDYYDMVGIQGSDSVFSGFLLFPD

- stoichiometry N: 1
Substance: Human complement component C1q (from UniProt P02745 23-245; P02746 28-253; P02747 29-245) (complex)

From publication PMC8771642
